# Laboratory results published in PubChem BioAssay AID504523 (Broad Institute, 2011).
# The chains behind the UniProt entries cited, without tags or fusion partners.
# UniProt Q14145, whole entry: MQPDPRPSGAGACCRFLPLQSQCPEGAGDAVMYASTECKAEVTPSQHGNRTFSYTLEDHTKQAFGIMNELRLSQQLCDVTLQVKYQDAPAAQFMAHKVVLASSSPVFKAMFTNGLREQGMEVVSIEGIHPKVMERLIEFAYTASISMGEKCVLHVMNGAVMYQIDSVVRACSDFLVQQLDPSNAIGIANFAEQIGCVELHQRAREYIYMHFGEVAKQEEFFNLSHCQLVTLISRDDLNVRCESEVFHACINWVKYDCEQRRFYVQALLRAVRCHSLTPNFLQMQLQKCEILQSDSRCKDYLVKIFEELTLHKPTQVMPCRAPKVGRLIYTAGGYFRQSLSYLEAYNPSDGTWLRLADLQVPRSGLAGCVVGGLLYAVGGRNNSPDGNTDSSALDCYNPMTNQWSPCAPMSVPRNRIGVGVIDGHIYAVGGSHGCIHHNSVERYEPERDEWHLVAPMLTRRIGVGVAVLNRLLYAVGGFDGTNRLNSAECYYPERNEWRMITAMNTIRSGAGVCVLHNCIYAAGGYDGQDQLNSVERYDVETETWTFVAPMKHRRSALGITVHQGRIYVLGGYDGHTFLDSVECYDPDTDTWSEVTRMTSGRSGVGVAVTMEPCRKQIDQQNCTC
# UniProt Q16236, whole entry partner: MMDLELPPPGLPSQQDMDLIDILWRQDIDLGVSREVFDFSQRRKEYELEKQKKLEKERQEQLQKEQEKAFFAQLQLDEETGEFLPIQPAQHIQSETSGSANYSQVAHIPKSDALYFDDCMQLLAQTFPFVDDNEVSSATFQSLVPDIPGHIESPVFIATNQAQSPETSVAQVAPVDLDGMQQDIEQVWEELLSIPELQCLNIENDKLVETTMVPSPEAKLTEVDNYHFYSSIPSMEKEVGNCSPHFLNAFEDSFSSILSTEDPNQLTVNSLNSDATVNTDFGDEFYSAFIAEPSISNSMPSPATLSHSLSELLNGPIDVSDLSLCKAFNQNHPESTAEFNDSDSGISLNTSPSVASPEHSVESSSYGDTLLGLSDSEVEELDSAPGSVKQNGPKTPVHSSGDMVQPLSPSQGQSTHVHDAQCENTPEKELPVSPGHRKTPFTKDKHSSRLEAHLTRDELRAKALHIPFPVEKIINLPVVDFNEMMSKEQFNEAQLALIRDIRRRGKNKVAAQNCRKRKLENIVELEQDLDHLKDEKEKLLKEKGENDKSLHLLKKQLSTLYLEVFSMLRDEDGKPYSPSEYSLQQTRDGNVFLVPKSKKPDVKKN
# The list shows a part of the results, in another mix than the full data. Some tests of the compounds listed are not included; inactive here does not mean inactive elsewhere. Activity calls are given as the source filed them. No stated cut-off is given here; in the data, active means inhibition above about 12%; inconclusive means no clear call, values can overlap the other calls; inactive means below about 7.3%.
# Molecular target: Kelch-like ECH-associated protein 1 (Homo sapiens) (UniProt Q14145)
# Test: Keap1-Nrf2 protein-protein interaction inhibitors, primary screen, biochemical, fluorescence polarization, single point (AID 504523);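 further: human Keap1 Kelch domain with fluorescein labeled Nrf2 9mer peptide probe; 0% = neutral control wells and 100% = peptide positive control; higher means more block of Keap1 binding to Nrf2 peptide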
# Details: Keap1 Kelch-Nrf2 peptide fluorescence polarization, 1536-well; at 9.4 µM; stronger effect = higher value
row,SMILES,inhibition
1,CN(C)C1(CNC(=O)c2ccc(Br)cc2)CCCCC1,inactive: 2.12%
2,COc1cc(C(=O)NCC2(N(C)C)CCCCC2)c([N+](=O)[O-])cc1OC,inactive: 4.16%
3,COc1ccc(Cl)cc1C(=O)NCC1(N(C)C)CCCCC1,inactive: -5.74%
4,COc1cccc(C(=O)NCC2(N3CCCCC3)CCCCC2)c1,inactive: 2.16%
5,O=C(NCC1(N2CCCCC2)CCCCC1)c1cccc(Cl)c1,inactive: -2.26%
6,O=C(OC1CN2CCC1CC2)C(CO)(c1ccccc1)c1ccccc1 (stereo not given),inactive: -1.33%
7,COc1ccc(Br)c(C(=O)NCC2(N3CCCCC3)CCCCC2)c1,inactive: -5.3%
8,O=C(OCCN1CCCC1)C(O)(c1ccccc1)c1ccccc1,inactive: -1.35%
9,CC(C)Oc1ccc(C(=O)NCC2(N(C)C)CCCCC2)cc1,inactive: 1.72%
10,CN(C)c1cccc(C(=O)NCC2(N(C)C)CCCCC2)c1,inactive: 2.29%
11,O=C(NCC1(N2CCCCC2)CCCCC1)c1cc([N+](=O)[O-])ccc1Cl,inactive: -5.55%
12,CN1[C@@H]2CC[C@H]1CC(OC(=O)C(O)(c1ccccc1)c1ccccc1)C2 (stereo not given in full),inactive: -0.454%
13,COc1cc(SC)ccc1C(=O)NCC1(N(C)C)CCCCC1,inactive: 0.595%
14,CCN(CC)CC(C)C(C)OC(=O)C(O)(c1ccccc1)c1ccccc1 (stereo not given),inactive: -1.24%
15,CC(C)N1C(=O)CC2(CCN(CCOC(=O)C(O)(c3ccccc3)c3ccccc3)CC2)C1=O,inactive: 2.85%
16,Cc1ccc(C(=O)NCC2(N3CCCCC3)CCCCC2)cc1,inactive: -3.5%
17,CN(C)c1ccc(C(=O)NCC2(N(C)C)CCCCC2)cc1,inactive: 0.0049%
18,CN(C)C1CCCC1OC(=O)C(O)(c1ccccc1)c1ccccc1 (stereo not given),inactive: -4.39%
19,Cc1ccccc1C(=O)NCC1(N2CCCCC2)CCCCC1,inactive: 3.54%
20,O=C(NCC1(N2CCCCC2)CCCCC1)c1cc(F)c(F)cc1Cl,inactive: 2.94%
21,C=CCN1CCN(CCOC(=O)C(O)(c2ccccc2)c2ccccc2)CC1,inactive: -1.67%
22,COc1ccc(C(=O)NCC2(N(C)C)CCCCC2)cc1,inactive: -2.66%
23,O=C(NCC1(N2CCCCC2)CCCCC1)c1cccc(Br)c1,inactive: 1.45%
24,CCN1CCCC(OC(=O)C2(O)c3ccccc3C=Cc3ccccc32)C1 (stereo not given),inactive: 0.691%
25,Cc1cc(C(=O)NCC2(N3CCCCC3)CCCCC2)ccc1[N+](=O)[O-],inactive: 3.19%
